According to PubChem BioAssay (Tox21):
Only a part is listed here, and it is no random draw. Results filed as inconclusive are left out. Active and inactive are the calls of the source. Unless noted, the call rests on the fitted dose curve; in most records, active means well fitted curve in the direction sought with a large enough effect in the repeat runs; inconclusive means weak or mixed curves; inactive means no such curve, though single readings can be large; an effect the other way counts as inactive or inconclusive.

Amino acid sequences for entries named in this document (tags omitted).
UniProt P37231, whole entry: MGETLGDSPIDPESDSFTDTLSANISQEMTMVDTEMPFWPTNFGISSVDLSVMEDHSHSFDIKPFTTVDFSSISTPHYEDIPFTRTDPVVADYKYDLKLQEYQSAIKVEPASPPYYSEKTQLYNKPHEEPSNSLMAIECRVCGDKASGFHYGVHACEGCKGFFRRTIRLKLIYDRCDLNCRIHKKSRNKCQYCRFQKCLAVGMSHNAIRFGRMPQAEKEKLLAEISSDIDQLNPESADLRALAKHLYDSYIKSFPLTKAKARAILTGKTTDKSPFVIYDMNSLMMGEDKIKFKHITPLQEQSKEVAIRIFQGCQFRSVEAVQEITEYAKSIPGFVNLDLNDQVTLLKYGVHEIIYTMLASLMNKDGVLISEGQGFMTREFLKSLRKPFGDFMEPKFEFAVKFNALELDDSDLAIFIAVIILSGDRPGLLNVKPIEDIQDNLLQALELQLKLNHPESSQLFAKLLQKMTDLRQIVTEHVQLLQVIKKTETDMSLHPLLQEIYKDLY
UniProt Q03181, whole entry: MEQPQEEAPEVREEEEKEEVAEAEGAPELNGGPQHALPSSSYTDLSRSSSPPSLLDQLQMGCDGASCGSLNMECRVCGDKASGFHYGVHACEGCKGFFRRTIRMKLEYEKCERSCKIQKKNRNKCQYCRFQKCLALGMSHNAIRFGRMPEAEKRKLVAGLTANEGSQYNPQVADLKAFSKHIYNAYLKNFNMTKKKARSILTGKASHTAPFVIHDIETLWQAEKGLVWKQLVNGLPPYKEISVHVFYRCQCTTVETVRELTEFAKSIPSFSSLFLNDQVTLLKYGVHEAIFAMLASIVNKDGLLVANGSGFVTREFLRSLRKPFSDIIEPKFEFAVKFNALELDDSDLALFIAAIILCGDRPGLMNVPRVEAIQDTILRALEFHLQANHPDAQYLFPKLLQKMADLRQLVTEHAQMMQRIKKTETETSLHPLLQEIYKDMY

How the values were obtained:
[1] = qHTS assay to identify small molecule that activate the aryl hydrocarbon receptor (AhR) signaling pathway - cell viability counter screen (AID 743086); settings: HepG2-AhR-luc viability, CellTiter-Fluor, 24 h; at 70.3 µM (top of the series);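 further: HepG2 liver cells carrying the AhR DRE luciferase reporter; nearly all actives have a fitted effect of over 45% in size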
Procedure, shortened: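 HepG2-AhR-luc (HG2L7.5c1) cells, 4000/well, were preincubated 5 h at 37C, exposed to compound in qHTS format for 24 hr at 37C, then given CellTiter-Fluor for 30 min; viability was read as fluorescence in the reporter wells.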

[2] = target: Peroxisome proliferator-activated receptor gamma (Homo sapiens) (UniProt P37231); assay: qHTS assay to identify small molecule agonists of the peroxisome proliferator-activated receptor gamma (PPARg) signaling pathway (AID 743094; active means well fitted activation curve with a large enough effect in the signal ratio in the repeat runs, not every such curve was filed as active; the % refers to the signal ratio); settings: HEK293H PPARg-UAS-bla, beta-lactamase FRET ratio, 17 h; at 57 µM (top of the series)
Procedure, shortened: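 Agonism was assessed in a beta-lactamase reporter system, HEK293H cells with a stably integrated UAS-bla construct under PPARg control; the 17 h treatment at 37C preceded a 1 h room-temperature FRET substrate read.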

[3] = target: Peroxisome proliferator-activated receptor gamma (Homo sapiens) (UniProt P37231); assay: qHTS assay to identify small molecule antagonists of the peroxisome proliferator-activated receptor gamma (PPARg) signaling pathway (AID 743191; calls by dose curve; further: nearly all actives have a fitted effect of over 30% in size); settings: HEK293H PPARg-UAS-bla, beta-lactamase ratio, antagonist, 17 h; at 81.1 µM (top of the series)
Procedure, shortened: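 GeneBLAzer PPARg UAS-bla HEK293H cells carrying a UAS-driven beta-lactamase reporter were plated at 3000 cells/well, preincubated 5 h at 37C, then given compound for 17 h at 37C; LiveBLAzer B/G FRET substrate was read after 1 h at room temperature.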

[4] = qHTS assay to identify small molecule antagonists of the peroxisome proliferator-activated receptor gamma (PPARg) signaling pathway - cell viability counter screen (AID 743194); settings: PPARg-bla HEK293H viability, CellTiter-Glo luminescence, 17 h, co-treated with 50 nM rosiglitazone; at 81.1 µM (top of the series) unless noted; further: nearly all actives have a fitted effect of over 55% in size
Procedure, shortened: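 PPARg-UAS-bla HEK293H cells were plated, rested 5 h at 37 C, then treated with compounds plus rosiglitazone (50 nM final) for 17 h at 37 C; viability was then read by CellTiter-Glo luminescence after 30 min at room temperature.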

[5] = qHTS assay for small molecule agonists of the antioxidant response element (ARE) signaling pathway (AID 743202; active means well fitted activation curve with a large enough effect in the signal ratio in the repeat runs, not every such curve was filed as active; the % refers to the signal ratio); settings: HepG2 ARE-bla reporter, beta-lactamase FRET, 16 h; at 73.3 µM (top of the series)
Procedure, shortened: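 Steps: seed ARE-bla HepG2 cells (2,000/well); incubate 5 h at 37 C; add compounds by pin tool; incubate 16 h at 37 C; add FRET substrate; read fluorescence after 2 h at RT.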

[6] = qHTS assay for small molecule agonists of the antioxidant response element (ARE) signaling pathway - cell viability counter screen (AID 743203; calls by dose curve; further: nearly all actives have a fitted effect of over 55% in size); settings: ARE-bla HepG2 viability, CellTiter-Glo luminescence, 16 h; at 73.3 µM (top of the series)
Procedure, shortened: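 ATP content via CellTiter-Glo luminescence served as the viability measure. Cells: ARE-bla HepG2, 2,000 per well. Exposure: 16 hrs, 37C/5% CO2.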

[7] = qHTS assay for small molecule activators of the heat shock response signaling pathway - cell viability counter screen (AID 743209); settings: HSE-bla HeLa viability, CellTiter-Glo luminescence, 5 h; at 81.1 µM (top of the series) unless noted; further: nearly all actives have a fitted effect of over 50% in size
Excerpt: (§1) U.S. Tox21 Program National Center for Advancing Translational Sciences [NCATS] NIH Chemical Genomics Center [NCGC] U.S. Environmental Protection Agency [EPA] National Institutes of Environmental Health Sciences [NIEHS] National Toxicology Program [NTP] U.S. Food and Drug Administration [FDA] Tox21 Assay Overview: Various chemicals, environmental and physiological stress conditions may lead to the activation of heat shock response/ unfolded protein response (HSR/UPR). There are three heat shock transcription factors (HSFs) (HSF-1, -2, and -4) mediating transcriptional regulation of the human HSR. To identify the compounds that activate HSR signaling, HSE-bla HeLa cell line (Invitrogen, Carlsbad, CA, USA) containing a beta-lactamase reporter gene under the control of the heat shock response elements was used to screen Tox21 10K compound library. The cytotoxicity of the Tox21 compound library against the HSE-bla HeLa cell line was tested in parallel by measuring the cell viability using CellTiter-Glo assay (Promega, Madison, WI) in the same wells.
Tox21 Assay Protocol Summary: The CellSensor HSE-bla HeLa cells (Invitrogen, Carlsbad, CA, USA) were dispensed at 1500 cells/6uL/well into 1536-well black wall/clear bottom plates using a Multidrop combi (Thermo Fisher Scientific, Waltham, MA) dispenser. After the assay plates were incubated at 37 C and 5% CO2 overnight, 23 nL of compounds dissolved in DMSO, positive controls or DMSO only was transferred to the assay plate by a Pintool station (Kalypsys, San Diego, CA). […] After 1 uL of LiveBLAzerTM B/G FRET substrate was added using a Flying Reagent Dispenser (FRD, Beckman Coulter, Indianapolis, IN, USA), the plates were incubated at room temperature for 2.5 h, and fluorescence intensity was measured by an Envision plate reader (PerkinElmer, Shelton, CT). For cell viability readout that measures cytotoxicity, 3 ul/well of CellTiter-Glo reagent was added into the assay plates using a FRD. After 30 min incubation at room temperature, the luminescence intensity in the plates was measured using a ViewLux (PerkinElmer) plate reader.

[8] = qHTS assay for small molecule activators of the heat shock response signaling pathway (AID 743210; active means well fitted activation curve with a large enough effect in the signal ratio in the repeat runs, with a control signal flat, not every such curve was filed as active; the % refers to the signal ratio); settings: HeLa HSE-bla reporter, beta-lactamase ratio, 5 h; at 81.1 µM (top of the series) unless noted
Excerpt: as §1, with “screen the” for “screen”, “library.” for “library. The cytotoxicity of the Tox21 compound library against the HSE-bla HeLa cell line was tested in parallel by measuring the cell viability using CellTiter-Glo assay (Promega, Madison, WI) in the same wells.”
Tox21 Assay Protocol Summary: The CellSensor HSE-bla HeLa cells (Invitrogen, Carlsbad, CA, USA) were dispensed at 1500 cells/6uL/well into 1536-well black wall/clear bottom plates using a Multidrop combi (Thermo Fisher Scientific, Waltham, MA) dispenser. After the assay plates were incubated at 37 C and 5% CO2 overnight, 23 nL of compounds dissolved in DMSO, positive controls or DMSO only was transferred to the assay plate by a Pintool station (Kalypsys, San Diego, CA). The plates were incubated at 37 C for 5 h. After 1 uL of LiveBLAzerTM B/G FRET substrate was added using a Flying Reagent Dispenser (Beckman Coulter, Indianapolis, IN, USA), the plates were incubated at room temperature for 2.5 h, and fluorescence intensity was measured by an Envision plate reader (PerkinElmer, Shelton, CT).

[9] = qHTS assay to identify small molecule agonists of the peroxisome proliferator-activated receptor delta (PPARd) signaling pathway - cell viability counter screen (AID 743211); settings: PPARd-bla HEK293H viability, CellTiter-Glo luminescence, 17 h; at 81.1 µM (top of the series) unless noted; further: nearly all actives have a fitted effect of over 55% in size
Procedure, shortened: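 Multiplexed format: after the 2 h room-temperature LiveBLAzer B/G FRET step, CellTiter-Glo was added to the same wells. Luminescence after 30 min gave cell viability; compound exposure was 17 h at 37C.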

[10] = target: Peroxisome proliferator-activated receptor delta (Homo sapiens) (UniProt Q03181); assay: qHTS assay to identify small molecule agonists of the peroxisome proliferator-activated receptor delta (PPARd) signaling pathway (AID 743212; calls by dose curve); settings: HEK293H PPARd-UAS-bla, beta-lactamase FRET ratio, 17 h; at 81.1 µM (top of the series) unless noted
Procedure, shortened: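 Cells expressing a UAS-driven beta-lactamase reporter (PPARd-bla HEK293H) were given test compounds after a 5 h settle and kept at 37 C. Reporter activity was then measured as FRET fluorescence using LiveBLAzer B/G substrate.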
On the % scale 0 is the no-effect control and ±100 the full control effect.

CCC(=O)N(c1ccccc1)C1CCN(CCc2ccccc2)CC1
inactive: viability change, negative = cytotoxic [1] -14.3% | activation [2] -5.16%

CCC(=O)N(c1ccccc1)C1(COC)CCN(CCn2nnn(CC)c2=O)CC1
inactive: viability change, negative = cytotoxic [1] -2.51% | activation [2] -4.35% | ratio activity, negative = inhibition [3] 4.05% | activity change, negative = cytotoxicity [4] 2.19% | activation [5] 5.82% | viability change, negative = cytotoxic [6] 11.1% | activity change, negative = cytotoxicity [7] -8.2% | activation [8] -0.117% | activity change, negative = cytotoxicity [9] -2.81% | activation [10] -1.16%

O=[N+]([O-])C(Cl)(Cl)Cl
inactive: viability change, negative = cytotoxic [1] 3.86% | activation [2] 2.55% | activity change, negative = cytotoxicity [4] 14.4% [at 62.6 µM] | activation [5] -7.92% | viability change, negative = cytotoxic [6] -5.18% | activity change, negative = cytotoxicity [7] 14.2% [at 62.6 µM] | activation [8] -0.765% [at 62.6 µM] | activity change, negative = cytotoxicity [9] 4.46% [at 62.6 µM] | activation [10] 0.364% [at 62.6 µM]

CCC(=O)N(c1ccccc1)C1(COC)CCN(CCc2cccs2)CC1
inactive: activity change, negative = cytotoxicity [4] -7.06% | viability change, negative = cytotoxic [6] -3.58% | activity change, negative = cytotoxicity [7] -1.25% | activation [8] -1.78% | activation [10] 7.57%
